Test results as given in ChEMBL document CHEMBL4765404, “Identification of benzofused five-membered sultams, potent dual NOD1/NOD2 antagonists in vitro and in vivo” (Eur J Med Chem, 2020).

Protein sequences, listed by entry. Tags and fused reporters are not part of them.
UniProt Q9HC29, whole entry: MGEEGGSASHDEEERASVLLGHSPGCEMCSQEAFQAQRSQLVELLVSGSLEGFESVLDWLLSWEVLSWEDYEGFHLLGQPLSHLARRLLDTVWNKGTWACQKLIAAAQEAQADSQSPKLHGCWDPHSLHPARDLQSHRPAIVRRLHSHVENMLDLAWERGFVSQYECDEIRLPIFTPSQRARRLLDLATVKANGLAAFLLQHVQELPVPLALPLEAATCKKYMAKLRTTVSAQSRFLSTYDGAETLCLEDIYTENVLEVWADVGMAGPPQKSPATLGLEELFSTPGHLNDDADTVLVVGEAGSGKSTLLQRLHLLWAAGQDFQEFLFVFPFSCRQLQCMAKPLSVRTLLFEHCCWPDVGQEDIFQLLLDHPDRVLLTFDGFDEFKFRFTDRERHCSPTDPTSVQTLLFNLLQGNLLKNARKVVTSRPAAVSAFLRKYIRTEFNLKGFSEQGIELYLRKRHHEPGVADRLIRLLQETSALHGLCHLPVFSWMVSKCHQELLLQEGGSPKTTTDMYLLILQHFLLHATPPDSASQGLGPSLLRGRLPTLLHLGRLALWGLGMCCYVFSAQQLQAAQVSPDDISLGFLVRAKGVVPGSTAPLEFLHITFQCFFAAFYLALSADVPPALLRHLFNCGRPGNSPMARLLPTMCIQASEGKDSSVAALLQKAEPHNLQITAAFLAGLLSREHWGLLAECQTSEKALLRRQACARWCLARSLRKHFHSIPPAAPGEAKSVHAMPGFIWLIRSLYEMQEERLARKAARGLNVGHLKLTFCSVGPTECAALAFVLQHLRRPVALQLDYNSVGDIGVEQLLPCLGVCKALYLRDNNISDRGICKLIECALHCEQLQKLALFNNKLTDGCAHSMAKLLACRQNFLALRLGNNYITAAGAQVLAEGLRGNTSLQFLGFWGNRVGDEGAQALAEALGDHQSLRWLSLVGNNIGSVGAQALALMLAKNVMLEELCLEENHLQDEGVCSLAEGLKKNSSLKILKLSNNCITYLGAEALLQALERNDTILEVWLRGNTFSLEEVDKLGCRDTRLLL

Target: Nucleotide-binding oligomerization domain-containing protein 2 (Homo sapiens, UniProt Q9HC29)
Assay: Antagonist activity at human NOD2 in HEK-Blue hNOD2 cells assessed as reduction in secreted alkaline phosphatase reporter activity at 10 uM preincubated for 3 hrs followed by stimulated with MDP for 20 hrs by Spectrophotometer method
Format: cell-based
Details: filed as antagonist

`CCCCc1nnc(CC2c3cccc(C)c3S(=O)(=O)N2C(=O)c2cccc(C(F)(F)F)c2)o1` (stereo unspecified) gave an inhibition of 91.3%.

With `CCCCOC(=O)CC1c2cccc(C)c2S(=O)(=O)N1C(=O)c1ccccc1C(F)(F)F` (stereo unspecified) the inhibition was 90.4%.

`CCCCOC(=O)CC1c2cccc(C)c2S(=O)(=O)N1C(=O)c1cccc(C(F)(F)F)c1` (stereo unspecified) was tested, and the inhibition was 89.7%.

`Cc1cccc2c1S(=O)(=O)N(C(=O)c1ccc(C(F)(F)F)cc1)C2CC(=O)OC(C)(C)C` (stereo unspecified) gave an inhibition of 66.5%.

`CCCCOC(=O)CC1c2ccc(Cl)c(C)c2S(=O)(=O)N1C(=O)c1ccc(C(F)(F)F)cc1` (stereo unspecified) showed an inhibition of 58.2%.

Work on `CCCCc1noc(CC2c3cccc(C)c3S(=O)(=O)N2C(=O)c2cccc(C(F)(F)F)c2)n1` (stereo unspecified) yielded an inhibition of 78.4%.

Work on `CCCCOC(=O)CC1c2cc(F)cc(C)c2S(=O)(=O)N1C(=O)c1ccc(C(F)(F)F)cc1` (stereo unspecified) yielded an inhibition of 66.6%.

With `CCCCOC(=O)CC1c2cc(OC)cc(OC)c2S(=O)(=O)N1C(=O)c1ccc(C(F)(F)F)cc1` (stereo unspecified) the inhibition was 65.8%.

`CCCCOC(=O)CC1c2cccc(C)c2S(=O)(=O)N1C(=O)c1ccc(C(F)(F)F)cc1` (stereo unspecified) was tested, and the inhibition was 84%.

Work on `COC(=O)CC1c2cccc(C)c2S(=O)(=O)N1C(=O)c1ccc(C(F)(F)F)cc1` (stereo unspecified) yielded an inhibition of 76.4%.

Molecule `CCCCOC(=O)CC1c2cccc(C)c2S(=O)(=O)N1C(=O)c1ccc(C#N)cc1` (stereo unspecified) has an inhibition of 65.6%.

With `CCCCOC(=O)CC1c2cccc(Cl)c2S(=O)(=O)N1C(=O)c1ccc(C(F)(F)F)cc1` (stereo unspecified) the inhibition was 92.4%.

In the case of `CCCCOC(=O)CC1c2cccc(C(=O)OCCCC)c2S(=O)(=O)N1C(=O)c1ccc(C(F)(F)F)cc1` (stereo unspecified), the inhibition is reported as 66.7%.

`CCCCOC(=O)CC1c2c(OC)ccc(OC)c2S(=O)(=O)N1C(=O)c1ccc(C(F)(F)F)cc1` (stereo unspecified) was tested, and the inhibition was 77%.

For `CCCCOC(=O)CC1c2cc(C)cc(C)c2S(=O)(=O)N1C(=O)c1ccc(C(F)(F)F)cc1` (stereo unspecified), the inhibition was 85.7%.

`CCCCOC(=O)CC1c2c(F)ccc(C)c2S(=O)(=O)N1C(=O)c1ccc(C(F)(F)F)cc1` (stereo unspecified) showed an inhibition of 76.3%.
